Test results taken from patent US4379148A, “Analgesic and anti-inflammatory composition” (priority 1981, dated 1983).

What was measured:
in vivo = conditions: mouse, po
[1] = rat, in vivo
[2] = LD50, drug alone, emorfazone 0, lethality within 7 days

Structure (SMILES) | LD50 at 168 h (in vivo; [2]) | ulcer index, emorfazone 50 mg/kg [1] | ulcer index, emorfazone 100 mg/kg [1] | ulcer index, emorfazone 0 ([1]; po) | LD50 at 168 h (in vivo) | LD50 at 168 h (in vivo; LD50 dose obtained experimentally, with emorfazone 240, p.o., combined with emorfazone 240 mg/kg)
CCOc1c(N2CCOCC2)cnn(C)c1=O [Emorfazone, 4-ethoxy-2-methyl-5-morpholino-3(2H)-pyridazinone] | 960 mg/kg | – | – | – | – | –
Cc1cccc(Nc2ccccc2C(=O)O)c1C [Mefenamic acid] | 1190 mg/kg | 7.3 ± 1.9 | 10.2 ± 2.6 | 10.5 ± 2.7 mm | 610 mg/kg | 920 mg/kg
